Measurements: PubChem BioAssay AID636 (SRMLSC, 2007)
This is a selection; strong and weak results do not stand in their true shares. The source made the active and inactive calls. Cut-off read from the data, not from the text of the source: active = inhibition above about 31%; inactive = the rest.

Experiment: 384-well plate pilot, post-Golgi transport modulator project, inhibition of yeast transport mutant growth (AID 636)
Conditions: absorbance 615 nm, about 18 h, active compounds read high

| SMILES | inhibition |
| --- | --- |
| O=P(Nc1nccs1)(c1ccccc1)c1ccccc1 | inactive: -5% |
| O=C(COc1ccccc1)OC1CN2CCC1CC2 (stereo not given) | inactive: 1.58% |
| COP1(=S)c2c(C)nn(CCC#N)c2N=C(c2ccc(F)cc2)N1C (stereo not given) | inactive: -4.29% |
| CCOP1(=S)c2c(C)nn(CCC#N)c2N=C(c2ccccc2F)N1C (stereo not given) | inactive: 0.13% |
| Cc1nn(-c2ccccc2)c2c1P(=O)(N1CCOCC1)N(C)C(c1ccccc1)=N2 (stereo not given) | inactive: 2.6% |
